Measured values from patent publication US9745328B2, “Flap modulators” (JANSSEN PHARMACEUTICA NV, priority 2013, dated 2017).
pKi: −log10 of the molar value.

The chains behind the UniProt entries cited, without tags or fusion partners. Where a name states a change or a piece, a line headed by the entry shows the natural chain unless it says otherwise.
UniProt P20292: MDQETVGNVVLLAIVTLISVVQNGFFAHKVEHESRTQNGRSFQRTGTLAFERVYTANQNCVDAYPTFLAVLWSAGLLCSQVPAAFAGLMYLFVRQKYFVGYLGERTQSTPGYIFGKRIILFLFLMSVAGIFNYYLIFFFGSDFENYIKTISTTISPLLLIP

Biological target: human FLAP (Homo sapiens (Human), UniProt P20292)
Experiment: FLAP binding assay (HTRF format)
Conditions: read-out: FLAP Binding wild type HTRF Ki
Description: The ability of the compounds of the present invention to treat a FLAP-mediated disease and/or disorder, or associated symptoms or complications thereof, was determined using the following procedures. Binding assay data represent the average value obtained from two different assay plates, with samples run in duplicate on each plate. Human whole blood assay data represent a single replicate on an assay plate using whole blood from at least one healthy donor.
Data are expressed as a HTRF ratio.

Substance | pKi
4-{[4′-(5-Aminopyrazin-2-yl)-3′- fluorobiphenyl-2- yl]carbonyl}piperazin-2-one [Example 519] | < 5.00
Ethyl 2-[2′-(tert-butylsulfamoyl)-3- fluorobiphenyl-4-yl]imidazo[1,2- a]pyridine-5-carboxylate [Example 587] | < 5.00
